The chains behind the UniProt entries cited, without tags or fusion partners.
UniProt Q61143, whole entry: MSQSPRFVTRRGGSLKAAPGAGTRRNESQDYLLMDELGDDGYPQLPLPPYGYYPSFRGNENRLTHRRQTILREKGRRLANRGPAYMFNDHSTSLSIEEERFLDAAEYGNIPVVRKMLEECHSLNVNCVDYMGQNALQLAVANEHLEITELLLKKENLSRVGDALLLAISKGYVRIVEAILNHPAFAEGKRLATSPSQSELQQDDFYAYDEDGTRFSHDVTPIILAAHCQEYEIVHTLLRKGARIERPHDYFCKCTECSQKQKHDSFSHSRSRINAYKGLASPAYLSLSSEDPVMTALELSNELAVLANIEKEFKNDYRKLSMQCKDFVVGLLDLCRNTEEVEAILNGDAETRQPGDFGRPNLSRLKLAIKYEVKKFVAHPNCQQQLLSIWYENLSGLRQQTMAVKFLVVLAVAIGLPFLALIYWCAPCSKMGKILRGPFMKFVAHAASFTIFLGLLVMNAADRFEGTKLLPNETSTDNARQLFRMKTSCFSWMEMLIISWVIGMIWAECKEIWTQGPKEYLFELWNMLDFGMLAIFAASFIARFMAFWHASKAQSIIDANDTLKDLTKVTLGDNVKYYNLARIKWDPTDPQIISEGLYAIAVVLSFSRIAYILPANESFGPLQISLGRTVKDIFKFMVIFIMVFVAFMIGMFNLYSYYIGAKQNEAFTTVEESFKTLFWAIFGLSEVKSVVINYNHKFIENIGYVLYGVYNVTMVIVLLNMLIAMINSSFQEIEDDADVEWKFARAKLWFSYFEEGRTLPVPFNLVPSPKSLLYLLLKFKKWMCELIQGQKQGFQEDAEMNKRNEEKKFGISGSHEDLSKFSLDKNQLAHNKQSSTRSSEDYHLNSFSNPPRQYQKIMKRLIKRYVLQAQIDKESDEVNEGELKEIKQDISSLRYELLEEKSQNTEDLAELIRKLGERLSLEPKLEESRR

This is a selection; strong and weak results do not stand in their true shares. Some tests of the compounds listed are not included; inactive here does not mean inactive elsewhere. Activity calls are given as the source filed them.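 Rule for the calls: active = membrane potential signal rise above negative control mean plus 3 SD in both duplicates, also active in the earlier TRPC4 screen; inactive = the rest.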
The compounds below were run against Short transient receptor potential channel 6 (Mus musculus) (UniProt Q61143) (assay: TRPC6 opening by TRPC4 activator hits – cell-based, HEK293, membrane potential dye, duplicate, selectivity assay for TRPC4 activator project, confirmation (AID 434950;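 note: 0% = buffer only wells and 100% = acetylcholine maximal-effect wells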)). Settings: HEK293 TRPC6, membrane potential fluorescence, at 10 µM, stronger effect = higher value.
With CN(C)c1ccc(C(=O)NCC2(N(C)C)CCCCC2)cc1 the activation was active: 28%.

From PubChem BioAssay AID434950 (Johns Hopkins Ion Channel Center, 2010)
